From publication PMC4404319 (ACS Chemical Neuroscience, 2015)
“Also recorded” adds a separate entry of the source.

System: Caco-2 / P-gp
Assay: Caco-2 two-way permeability / P-gp substrate

SMILES: CN1CCN(c2cc(-c3ccncc3)c(-c3ccc4ccccc4c3)nn2)CC1 [MW150, 6-(4-Methylpiperazin-1-yl)-3-(naphthalen-2-yl)-4-(pyridin-4-yl)pyridazine]
- Caco-2 permeability classification: high cell permeability; also recorded: highly permeable
- P-gp substrate status (effect of 1 μM valspodar on bidirectional flux): not a substrate; also recorded: not P-gp substrate
